Measured values taken from BindingDB's records for PubMed 7915318 (Ohio State University, 1994).

Chains of the proteins cited; added tags and fusions are not shown.
UniProt Q8K4Z4, whole entry: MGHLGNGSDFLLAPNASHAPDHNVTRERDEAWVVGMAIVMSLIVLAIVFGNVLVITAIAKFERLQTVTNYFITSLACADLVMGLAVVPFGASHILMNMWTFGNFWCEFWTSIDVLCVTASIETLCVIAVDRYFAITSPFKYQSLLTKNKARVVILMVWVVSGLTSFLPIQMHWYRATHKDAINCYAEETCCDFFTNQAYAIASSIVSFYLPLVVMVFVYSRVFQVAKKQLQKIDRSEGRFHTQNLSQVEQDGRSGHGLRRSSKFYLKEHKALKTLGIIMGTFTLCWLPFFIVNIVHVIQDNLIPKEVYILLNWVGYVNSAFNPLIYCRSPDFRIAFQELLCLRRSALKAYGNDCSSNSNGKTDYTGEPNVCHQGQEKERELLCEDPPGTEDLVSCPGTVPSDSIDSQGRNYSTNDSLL
UniProt P08588, whole entry: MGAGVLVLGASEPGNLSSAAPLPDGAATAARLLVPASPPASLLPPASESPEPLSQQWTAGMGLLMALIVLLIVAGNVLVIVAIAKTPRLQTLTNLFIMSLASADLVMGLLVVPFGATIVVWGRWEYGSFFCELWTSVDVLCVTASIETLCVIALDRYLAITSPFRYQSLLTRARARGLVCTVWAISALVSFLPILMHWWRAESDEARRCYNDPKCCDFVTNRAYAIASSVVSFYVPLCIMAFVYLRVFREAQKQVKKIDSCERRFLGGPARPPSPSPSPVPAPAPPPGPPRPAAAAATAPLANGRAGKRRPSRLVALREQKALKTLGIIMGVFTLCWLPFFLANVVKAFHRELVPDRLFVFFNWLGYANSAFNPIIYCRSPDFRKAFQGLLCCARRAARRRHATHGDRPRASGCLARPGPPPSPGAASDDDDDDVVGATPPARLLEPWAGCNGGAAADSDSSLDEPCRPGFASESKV

What was measured:
[1] = target: Beta-2 adrenergic receptor (Cavia porcellus, UniProt Q8K4Z4)
[2] = target: Beta-1 adrenergic receptor (Homo sapiens, UniProt P08588)

Row | SMILES | Ki [1] [µM] | Ki [2] [µM]
1 | CC(C)(C)NCC(O)c1ccc(O)c(CO)c1 (racemic) [Levalbuterol] | 2.4 | –
2 | COc1c(I)cc(CC2NCCc3cc(O)c(O)cc32)cc1I (configuration not stated) [TMQ, 3',5'-Diiodo] | – | 0.00524
